This note sets out measurements from paper PMC6968506, “Synthesis, in vitro screening and molecular docking of isoquinolinium-5-carbaldoximes as acetylcholinesterase and butyrylcholinesterase reactivators” (2020).

The chains behind the UniProt entries cited, without tags or fusion partners. Residues count along the entry.
UniProt P22303, 32-614 limits assumed: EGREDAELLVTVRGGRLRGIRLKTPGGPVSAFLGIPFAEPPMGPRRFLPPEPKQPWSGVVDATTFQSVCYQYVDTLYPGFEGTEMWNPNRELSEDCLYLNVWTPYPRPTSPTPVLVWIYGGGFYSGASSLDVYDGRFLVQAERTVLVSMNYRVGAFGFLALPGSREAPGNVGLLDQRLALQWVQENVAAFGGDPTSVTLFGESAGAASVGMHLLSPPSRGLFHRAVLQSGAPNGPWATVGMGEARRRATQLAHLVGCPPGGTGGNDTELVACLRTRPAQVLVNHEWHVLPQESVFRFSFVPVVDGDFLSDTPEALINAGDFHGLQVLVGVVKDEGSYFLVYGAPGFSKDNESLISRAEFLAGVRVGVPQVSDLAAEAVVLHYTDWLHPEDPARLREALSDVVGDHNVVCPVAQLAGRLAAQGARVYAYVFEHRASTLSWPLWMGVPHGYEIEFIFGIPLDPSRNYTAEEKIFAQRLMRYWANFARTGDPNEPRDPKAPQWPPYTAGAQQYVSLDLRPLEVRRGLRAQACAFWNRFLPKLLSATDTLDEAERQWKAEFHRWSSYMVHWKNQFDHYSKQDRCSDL
UniProt P06276, 29-602 limits assumed: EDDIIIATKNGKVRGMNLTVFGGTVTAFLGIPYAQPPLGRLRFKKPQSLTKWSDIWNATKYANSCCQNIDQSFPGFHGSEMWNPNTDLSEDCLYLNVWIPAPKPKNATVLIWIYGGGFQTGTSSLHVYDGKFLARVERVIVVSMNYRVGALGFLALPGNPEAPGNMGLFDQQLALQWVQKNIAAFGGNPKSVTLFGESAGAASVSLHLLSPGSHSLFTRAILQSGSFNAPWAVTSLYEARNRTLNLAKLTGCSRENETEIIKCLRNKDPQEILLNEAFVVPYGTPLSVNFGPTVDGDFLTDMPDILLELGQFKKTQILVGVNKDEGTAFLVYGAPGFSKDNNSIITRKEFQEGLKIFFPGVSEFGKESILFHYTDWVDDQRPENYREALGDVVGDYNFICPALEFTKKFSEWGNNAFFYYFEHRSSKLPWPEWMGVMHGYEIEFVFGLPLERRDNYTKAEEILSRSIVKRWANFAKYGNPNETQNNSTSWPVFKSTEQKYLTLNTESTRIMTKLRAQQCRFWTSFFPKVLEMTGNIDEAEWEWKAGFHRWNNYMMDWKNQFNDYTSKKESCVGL

As usually defined, the IC50 is the concentration that gives 50% inhibition. As usually defined, the Kd is the constant that tells how readily two partners part at equilibrium.

The target in one test is hAChE (Homo sapiens, UniProt P22303). Nature of the test: Inhibition assay (Ellman's method), hAChE. The note with it: for IC50: read-out: IC50 hAChE ± SEM, Ellman's method, pH 7.4, 37 °C; for % of hAChE activity treated with oxime (100 µM): (absorbance of uninhibited enzyme + oxime/absorbance of uninhibited enzyme)*100. On the technique in general: DTNB colorimetry detects thiols as they appear.

Another test deals with hBChE (Homo sapiens, UniProt P06276). Nature of the test: Inhibition assay (Ellman's method), hBChE. The note with it: for IC50: read-out: IC50 hBChE ± SEM, Ellman's method, pH 7.4, 37 °C; for % of hBChE activity treated with oxime (100 µM): (absorbance of uninhibited enzyme + oxime/absorbance of uninhibited enzyme)*100; for Selectivity index hBChE/hAChE: ratio IC50 hBChE/hAChE.

Test [1] addresses VX-hBChE (human plasmatic BChE) (Homo sapiens, UniProt P06276). The test is described as follows: Reactivation of VX-inhibited hBChE. The note with it: 10 min, 37 °C.
Test [2] addresses Sarin-hBChE (human plasmatic BChE) (Homo sapiens, UniProt P06276). The test is described as follows: Reactivation of sarin-inhibited hBChE. The note with it: 10 min, 37 °C.
The target in test [3] is Paraoxon-hBChE (human plasmatic BChE) (Homo sapiens, UniProt P06276). The test is described as follows: Reactivation of paraoxon-inhibited hBChE. The note with it: 10 min, 37 °C.
The target of test [4] is Paraoxon-hAChE (human erythrocyte AChE) (Homo sapiens, UniProt P22303). Nature of the test: Reactivation of paraoxon-inhibited hAChE. The note with it: 10 min, 37 °C.
The target in test [5] is human recombinant BChE inhibited by NEMP (VX surrogate) (Homo sapiens, UniProt P06276). Nature of the test: Reactivation kinetics, NEMP (VX surrogate)-inhibited BChE.
Test [6] has as its target human recombinant BChE inhibited by NIMP (sarin surrogate) (Homo sapiens, UniProt P06276). The test is described as follows: Reactivation kinetics, NIMP (sarin surrogate)-inhibited BChE.
The mark [7] stands for this setting: affinity of oxime towards OP-inhibited enzyme.
[8] abbreviates: second-order reactivation rate constant kr2=kr/KD.

As to `NC(=O)c1cc[n+](CCCCC[n+]2ccc3c(C=NO)cccc3c2)cc1`, the IC50 was 14.2 µM on hAChE and 2140 µM on hBChE.
Turning to `ON=Cc1cccc2c[n+](CCCCCCCC[n+]3ccc4c(C=NO)cccc4c3)ccc12`, at hAChE, the “% of hAChE activity treated with oxime (100 µM)” value (from here on “% of hAChE activity treated”) turned out to be 9% and the IC50 turned out to be 2.42 µM. For the same compound, at hBChE, the “% of hBChE activity treated with oxime (100 µM)” value (“% of hBChE activity treated” for short) came to 9%, the Selectivity index hBChE/hAChE is 1.5 and the IC50 is 3.52 µM.
As for `ON=Cc1cccc2c[n+](CCCCCC[n+]3ccc4c(C=NO)cccc4c3)ccc12`, on hAChE, the “% of hAChE activity treated” value turned out to be 5% and the IC50 came to 0.56 µM. Moreover, at hBChE, the “% of hBChE activity treated” value is reported as 31%, the Selectivity index hBChE/hAChE was determined as 56.1 and the IC50 worked out at 31.4 µM.
For `NC(=O)c1cc[n+](CCC[n+]2ccc3c(C=NO)cccc3c2)cc1`, the figures for the IC50 at hAChE and at hBChE were 116 µM and 2470 µM, respectively.
`ON=Cc1cccc2c[n+](CCCCCCCCCCC[n+]3ccc4c(C=NO)cccc4c3)ccc12`: on hAChE, the “% of hAChE activity treated” value is given as 0% and the IC50 was found to be 0.061 µM. In addition, at hBChE, the “% of hBChE activity treated” value is on record as 3%, the Selectivity index hBChE/hAChE worked out at 17.7 and the IC50 stood at 1.08 µM.
Turning to `C[n+]1ccc2c(C=NO)cccc2c1`, the IC50 at hAChE is 23.6 µM; at hBChE, 94 µM.
Turning to `ON=Cc1cccc2c[n+](CCCCC[n+]3ccc4c(C=NO)cccc4c3)ccc12`, on hAChE, the “% of hAChE activity treated” value is recorded as 6% and the IC50 turned out to be 3.21 µM. For the same compound, on hBChE, the “% of hBChE activity treated” value worked out at 43%, the Selectivity index hBChE/hAChE stood at 24.2 and the IC50 came to 77.7 µM.
For the compound `NC(=O)c1cc[n+](CCCC[n+]2ccc3c(C=NO)cccc3c2)cc1.[Br-].[Br-]`, the entries for the “VX-hBChE % reactivation ± SD” value in test [1] (oxime 10 µM) and in test [1] (oxime 100 µM) were 0% and 6.3 ± 0.6%, respectively. Further, the “Sarin-hBChE % reactivation ± SD” value in test [2] (oxime 10 µM) stood at 4.2 ± 0.5%; in test [2] (oxime 100 µM), 5.9 ± 0.3%. Also, the “Paraoxon-hBChE % reactivation ± SD” value in test [3] (oxime 10 µM) is 0%; in test [3] (oxime 100 µM) it was 1.1 ± 0.2%. On hAChE, the “% of hAChE activity treated” value turned out to be 37%. Besides, the “% of hBChE activity treated” value on hBChE is reported as 92%. In addition, at hBChE, the Selectivity index hBChE/hAChE was 48.4.
For `ON=Cc1cccc2c[n+](CCCCCCCCCC[n+]3ccc4c(C=NO)cccc4c3)ccc12`, on hAChE, the “% of hAChE activity treated” value is reported as 1% and the IC50 was determined as 0.1 µM. Moreover, on hBChE, the “% of hBChE activity treated” value is reported as 8%, the Selectivity index hBChE/hAChE came out at 13.4 and the IC50 was found to be 1.34 µM.
Turning to `ON=Cc1cccc2c[n+](CCCCCCC[n+]3ccc4c(C=NO)cccc4c3)ccc12`, at hAChE, the “% of hAChE activity treated” value turned out to be 5% and the IC50 came out at 0.38 µM. In addition, on hBChE, the “% of hBChE activity treated” value came out at 17%, the Selectivity index hBChE/hAChE amounted to 10.4 and the IC50 turned out to be 3.94 µM.
`ON=Cc1cccc2c[n+](COC[n+]3ccc4c(C=NO)cccc4c3)ccc12`: on hAChE, the “% of hAChE activity treated” value came to 26% and the IC50 turned out to be 30.3 µM. Besides, at hBChE, the “% of hBChE activity treated” value came to 34%, the Selectivity index hBChE/hAChE was determined as 1.2 and the IC50 amounted to 35.8 µM.
For `ON=Cc1cccc2c[n+](CCCCCCCCCCCC[n+]3ccc4c(C=NO)cccc4c3)ccc12`, in that order: 0%, 0.061 µM, 6%, 19.3 and 1.18 µM.
As to `C[n+]1ccc2c(C=NO)cccc2c1.[I-]`, the “% of hAChE activity treated” value on hAChE came out at 20%. Also, at hBChE, the “% of hBChE activity treated” value is listed as 49% and the Selectivity index hBChE/hAChE amounted to 4.
In the case of `NC(=O)c1cc[n+](CCC[n+]2ccc3c(C=NO)cccc3c2)cc1.[Br-].[Br-]`, the entries for the “VX-hBChE % reactivation ± SD” value in test [1] (oxime 10 µM) and in test [1] (oxime 100 µM) were 2.0 ± 0.3% and 11.5 ± 1.1%, respectively. Further, the “Sarin-hBChE % reactivation ± SD” value in test [2] (oxime 10 µM) was determined as 4.8 ± 0.2%; in test [2] (oxime 100 µM), 7.2 ± 0.5%. Also, the “Paraoxon-hAChE % reactivation ± SD” value in test [4] (oxime 10 µM) is 0.9 ± 0.4%; in test [4] (oxime 100 µM) it was 2.1 ± 0.4%. Also, the “Paraoxon-hBChE % reactivation ± SD” value was 2.0 ± 0.6% in test [3] (oxime 10 µM) and 2.7 ± 0.5% in test [3] (oxime 100 µM). Moreover, the “% of hAChE activity treated” value at hAChE is on record as 53%. At hBChE, the “% of hBChE activity treated” value came out at 97%. Moreover, the Selectivity index hBChE/hAChE on hBChE was found to be 21.3.
Regarding `ON=Cc1cccc2c[n+](CCCC[n+]3ccc4c(C=NO)cccc4c3)ccc12`, the “VX-hBChE % reactivation ± SD” value turned out to be 11.5 ± 0.5% in test [1] (oxime 10 µM) and 39.8 ± 0.4% in test [1] (oxime 100 µM). Also, the “Sarin-hBChE % reactivation ± SD” value in test [2] (oxime 10 µM) turned out to be 4.8 ± 0.8%; in test [2] (oxime 100 µM) it was 17.3 ± 0.8%. For the same compound, the results for the “Paraoxon-hBChE % reactivation ± SD” value in test [3] (oxime 10 µM) and in test [3] (oxime 100 µM) were 0.2 ± 0.3% and 3.6 ± 1.0%, respectively. Besides, at hAChE, the “% of hAChE activity treated” value is 11%. For the same compound, the results for the IC50 at hAChE and on hBChE were 3.74 µM and 122 µM, respectively. Moreover, the “% of hBChE activity treated” value on hBChE is listed as 64%. Also, the Selectivity index hBChE/hAChE at hBChE stood at 32.6.
Turning to `ON=Cc1cccc2c[n+](CCCCCCCCC[n+]3ccc4c(C=NO)cccc4c3)ccc12`, at hAChE, the “% of hAChE activity treated” value worked out at 1% and the IC50 worked out at 0.2 µM. Besides, at hBChE, the “% of hBChE activity treated” value came to 5%, the Selectivity index hBChE/hAChE was 8.7 and the IC50 was determined as 1.73 µM.
In the case of `ON=Cc1cccc2c[n+](CCC[n+]3ccc4c(C=NO)cccc4c3)ccc12`, the “VX-hBChE % reactivation ± SD” value in test [1] (oxime 10 µM) came out at 14.3 ± 0.4%; in test [1] (oxime 100 µM), 45.2 ± 0.5%. The results for the “Sarin-hBChE % reactivation ± SD” value in test [2] (oxime 10 µM) and in test [2] (oxime 100 µM) were 14.7 ± 0.4% and 52.6 ± 1.3%, respectively. Further, the “Paraoxon-hBChE % reactivation ± SD” value in test [3] (oxime 10 µM) is 2.0 ± 0.5%; in test [3] (oxime 100 µM), 10.6 ± 0.5%. At hAChE, the “% of hAChE activity treated” value is given as 34%. Moreover, the IC50 turned out to be 32.9 µM at hAChE and 284 µM on hBChE. Further, the “% of hBChE activity treated” value on hBChE turned out to be 67%. On hBChE, the Selectivity index hBChE/hAChE came to 8.6. Also, the results for the Kd in test [5] (setting [7]) and in test [6] (setting [7]) were 5.3 µM and 17.4 µM, respectively. Further, the kr is 1.29 min⁻¹ in test [5] (reactivity constant) and 0.47 min⁻¹ in test [6] (reactivity constant). Besides, the results for the kr2 in test [5] (setting [8]) and in test [6] (setting [8]) were 4075 M⁻¹ s⁻¹ and 452 M⁻¹ s⁻¹, respectively.
Consider `NC(=O)c1cc[n+](CCCC[n+]2ccc3c(C=NO)cccc3c2)cc1`, for which the IC50 on hAChE stood at 55.7 µM; on hBChE, 2700 µM.
As to `NC(=O)c1cc[n+](CCCCC[n+]2ccc3c(C=NO)cccc3c2)cc1.[Br-].[Br-]`, the “VX-hBChE % reactivation ± SD” value in test [1] (oxime 10 µM) was 2.8 ± 0.4%; in test [1] (oxime 100 µM), 11.2 ± 0.4%. Besides, the “Sarin-hBChE % reactivation ± SD” value in test [2] (oxime 10 µM) was 3.9 ± 0.5%; in test [2] (oxime 100 µM) it was 5.3 ± 0.4%. Further, the “Paraoxon-hBChE % reactivation ± SD” value was found to be 1.9 ± 0.2% in test [3] (oxime 10 µM) and 1.9 ± 0.3% in test [3] (oxime 100 µM). Also, the “% of hAChE activity treated” value on hAChE was found to be 19%. At hBChE, the “% of hBChE activity treated” value came out at 88%. For the same compound, at hBChE, the Selectivity index hBChE/hAChE was determined as 151.
